Here are results for 1 compound from ChEMBL document CHEMBL5113525, “Discovery of the Novel 1H-Pyrrolo[2,3-b]pyridine Derivative as a Potent Type II CDK8 Inhibitor against Colorectal Cancer” (J Med Chem, 2022).

The chains behind the UniProt entries cited, without tags or fusion partners. Where a name states a change or a piece, a line headed by the entry shows the natural chain unless it says otherwise.
UniProt P49336: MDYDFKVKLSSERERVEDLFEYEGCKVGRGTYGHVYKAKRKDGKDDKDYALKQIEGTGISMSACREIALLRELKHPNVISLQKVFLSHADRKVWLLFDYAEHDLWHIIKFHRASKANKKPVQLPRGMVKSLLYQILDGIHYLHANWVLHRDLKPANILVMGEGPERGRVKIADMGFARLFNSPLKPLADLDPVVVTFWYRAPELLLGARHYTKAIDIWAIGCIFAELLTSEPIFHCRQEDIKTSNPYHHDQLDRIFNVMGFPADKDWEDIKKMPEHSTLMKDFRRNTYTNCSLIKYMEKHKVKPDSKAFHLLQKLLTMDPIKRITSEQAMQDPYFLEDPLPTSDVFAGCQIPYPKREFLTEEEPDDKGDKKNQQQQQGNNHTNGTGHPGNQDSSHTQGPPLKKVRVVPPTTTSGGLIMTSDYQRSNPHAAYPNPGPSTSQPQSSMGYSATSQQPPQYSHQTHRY

This assay addresses Cyclin-dependent kinase 8 (Homo sapiens, UniProt P49336). Nature of the assay: Inhibition of CDK8 (unknown origin) at 200 nM incubated in presence of ATP by ADP-Glo kinase assay relative to control.

The term inhibition denotes the relative decrease from the control value, in per cent. Consider `Cc1c(Br)c(Br)c2c3c1nc(N1CCNCC1)n3CCC2` [SEL-120], for which the inhibition came out at 75.6%.
